In patent US12570711B2, “Platforms for co-stimulation, novel car designs and other enhancements for adoptive cellular therapy” (Angeles Therapeutics, Inc., priority 2017, dated 2026):

Tests used:
[1] = test system: RAJI cells; test: AP20187-induced proliferation and cytokine production of CAR-T cells exposed to RAJI cells; format: cell-based, human; conditions: AP20187 100 nM; exposed to CD19 expressing RAJI cells
Experimental: The experiments described in the preceding paragraphs are repeated by using CAR constructs in which the hNEMO-K277A accessory module is replaced by accessory modules encoding FKBPx2-hNEMO, FKBPx2-hNEMO-K277A (SEQ ID NO: 1006), FKBPx2-hNEMO-L753(251) (SEQ ID NO: 1007), FKBPx2-hNEMO-L600(200) (SEQ ID NO: 1008), IKK2-delta-SCD-FKBPv36x2 (SEQ ID NO: 7782), IKK1-delta-SCD-FKBPv36x2 (SEQ ID NO: 7781) and FKBPx2-RIP-ID (SEQ ID NO: 1009). T cells expressing the CAR and these accessory modules are tested using in vitro assays in the absence and presence of the dimerizer AP20187 (100 nM). […] In an in vivo experiment, NSG mice (n=12 per group) are xenografted with 2 million RAJI-Luc cells by tail vein injection and 3 days later administered 5 million T cells expressing a CD19-CAR and coexpressing the FKBPx2-hNEMO, FKBPx2-hNEMO-K277A (SEQ ID NO: 1006), FKBPx2-hNEMO-L753(251) (SEQ ID NO: 1007), FKBPx2-hNEMO-L600(200) (SEQ ID NO: 1008) and FKBPx2-RIP-ID (SEQ ID NO: 1009) modules. Half the mice in each group (n =6) are administered 40 μg of AP20187 every day for 10 days by intraperitoneal injection as described previously (Chinnery et al, J Immunol 2009; 182:2738-2744).

[2] = target: T1, CD19-ECD-GGS-NLuc fusion protein (Homo sapiens, UniProt P15391); test: CAR surface expression on J-N-G cells by binding with CD19-ECD-GGS-NLuc fusion protein; format: cell-based; conditions: compared to wild-type EF1α promoter
T1 construct: made in house
T1 sequence (P15391 20-290): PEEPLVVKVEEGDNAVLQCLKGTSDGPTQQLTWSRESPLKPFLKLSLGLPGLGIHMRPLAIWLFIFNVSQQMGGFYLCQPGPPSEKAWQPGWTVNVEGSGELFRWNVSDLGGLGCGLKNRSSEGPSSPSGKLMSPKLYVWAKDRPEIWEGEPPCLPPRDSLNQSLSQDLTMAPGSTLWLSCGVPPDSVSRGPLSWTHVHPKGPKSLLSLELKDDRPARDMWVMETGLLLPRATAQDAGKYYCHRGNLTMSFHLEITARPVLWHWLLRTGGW
Source text: Use of strong viral promoters in adoptive cellular therapy applications carries the risk of activation of downstream oncogenes and development of cancer. As such, human Elongation Factor 1α (EF1α) promoter is frequently used in adoptive cellular therapy applications as it provides strong expression and is human in origin. A limitation of EF1α promoter, however, is its relatively large size. Although a mini-EF1α promoter has been described, it is much weaker as compared to the EF1α promoter. To determine whether an internal deletion in the EF1α promoter would allow shortening of its length while preserving its promoter strength, a SacII fragment was deleted from the EF1α promoter. The nucleotide sequence of the resulting EF1α-D-SacII promoter is presented in SEQ ID NO: 3842. Lentiviral vectors encoding a CD19-directed FMC63-BBz CAR were constructed in the vectors with the wild-type EF1α promoter (SEQ ID NO: 3840) or EF1α-D-SacII promoter (SEQ ID NO: 3839). The vectors also co-expressed EGFP and blasticidin resistance gene via 2A linkers. Lentiviruses were generated in 293FT cells and used to infect J-N-G cells.

[3] = test system: Mesothelin, IL13Ra2 and hematopoietic markers (CD19, CD20, CD22, BCMA); test: Effect of CAR combination on in vivo T cell expansion in patients with mesothelioma and glioblastomas; design: species or system human; conditions: T cells that are defective in TCR chains; coexpressed CD20 CAR
Experimental: Patients with mesothelioma and glioblastomas are administered T cells infected with lentiviruses encoding the following combination of CARs targeting Mesothelin (expressed on mesotheloma), IL13Ra2 (expressed on Glioblastomas) and hematopoietic markers (CD19, CD20, CD22, BCMA). The T cells are either of the wild-type TCR chains or have the TCRα chain knocked out by CRISP/Cas9 approach. It is observed that coexpression in the same T cells with the wild-type TCR chains of a CAR targeting mesothelin with a CAR targeting CD19, CD20, CD22 or BCMA results in increased T cell expansion in vivo as compared to expression of Mesothelin alone.

In the case of “IKK1-delta-SCD-FKBPv36x2: IKK1 fusion with FKBPv36x2 switch domain, accessory module”, the “proliferation and cytokine production of CAR-T cells on addition of AP20187” value [1] is reported as “induce the proliferation and cytokine production”.

B1: EF1α-D-SacII promoter: EF1α promoter from which an internal SacII fragment was deleted (nucleic acid)
DNA: GTGAGGCTCCGGTGCCCGTCAGTGGGCAGAGCGCACATCGCCCACAGTCCCCGAGAAGTTGGGGGGAGGGGTCGGCAATTGAACCGGTGCCTAGAGAAGGTGGCGCGGGGTAAACTGGGAAAGTGATGTCGTGTACTGGCTCCGCCTTTTTCCCGAGGGTGGGGGAGAACCGTATATAAGTGCAGTAGTCGCCGTGAACGTTCTTTTTCGCAACGGGTTTGCCGCCAGAACACAGGTAAGTGCCGTGTGTGGTTCCCGCGGGCGGCGACGGGGCCCGTGCGTCCCAGCGCACATGTTCGGCGAGGCGGGGCCTGCGAGCGCGGCCACCGAGAATCGGACGGGGGTAGTCTCAAGCTGGCCGGCCTGCTCTGGTGCCTGGCCTCGCGCCGCCGTGTATCGCCCCGCCCTGGGCGGCAAGGCTGGCCCGGTCGGCACCAGTTGCGTGAGCGGAAAGATGGCCGCTTCCCGGCCCTGCTGCAGGGAGCTCAAAATGGAGGACGCGGCGCTCGGGAGAGCGGGCGGGTGAGTCACCCACACAAAGGAAAAGGGCCTTTCCGTCCTCAGCCGTCGCTTCATGTGACTCCACGGAGTACCGGGCGCCGTCCAGGCACCTCGATTAGTTCTCGACCTTTTGGAGTACGTCGTCTTTAGGTTGGGGGGAGGGGTTTTATGCGATGGAGTTTCCCCACACTGAGTGGGTGGAGACTGAAGTTAGGCCAGCTTGGCACTTGATGTAATTCTCCTTGGAATTTGCCCTTTTTGAGTTTGGATCTTGGTTCATTCTCAAGCCTCAGACAGTGGTTCAAAGTTTTTTTCTTCCATTTCAGGTGTCGTGA
In the case of B1, the “surface expression of the FMC63-BBz CAR” value [2] is reported as “near equivalent expression of the FMC63-BBz CAR”.

B2: SEQ ID NO: 9668: SIR based CAR targeting CD20, lacking a hNEMO-K277A module (protein)
chain: MALPVTALLLPLALLLHAARPQIVLSQSPAILSASPGEKVTMTCRASSSVSYMHWYQQKPGSSPKPWIYATSNLASGVPARFSGSGSGTSYSFTISRVEAEDAATYYCQQWTFNPPTFGGGTRLEIKRTVAALEDLKNVFPPEVAVFEPSKAEIAHTQKATLVCLATGFYPDHVELSWWVNGKEVHSGVCTDPQPLKEQPALNDSRYCLSSRLRVSATFWQNPRNHFRCQVQFYGLSENDEWTQDRAKPVTQIVSAEAWGRADCGITSASYHQGVLSATILYEILLGKATLYAVLVSALVLMAMVKRKDSRGRAKRSGSGATNFSLLKQAGDVEENPGPTSMDWIWRILFLVGAATGAHSFEQAYLQQSGAELVRPGASVKMSCKASGYTFTSYNMHWVKQTPRQGLEWIGGIYPGNGDTSYNQKFKGKATLTVGKSSSTAYMQLSSLTSEDSAVYFCARYDYNYAMDYWGQGTSVTVSSASTRIQNPDPAVYQLRDSKSSDKSVCLFTDFDSQTNVSQSKDSDVYITDKCVLDMRSMDFKSNSAVAWSNKSDFACANAFNNSIIPEDTFFPSSDVPCDVKLVEKSFETDTNLNFQNLSVIGFRILLLKVAGFNLLMTLRLWSS
modifications: Synthetic Polynucleotide encoding a CAR with optional accessory module(s)
For B2, the “in vivo T cell expansion” value [3] was “successfully induces T cells expansion”.
